The values that follow are results of earlier work, collected in patent US7071293B1, “Alpha helical peptides with broad spectrum antimicrobial activity that are insensitive to salt” (priority 1999, dated 2006).

Like-named read-outs stand apart in the source and are kept apart here.

The series concerns Staphylococcus coagulase f. Further details: MIC90: unit not given beside the values. Conditions: cited from earlier work; for Range: MIC range.
[1] abbreviates: Staphylococcus coagulase f (β-lactamase producer).

In the case of `CC[C@H]1OC(=O)[C@H](C)[C@@H](O[C@H]2C[C@@](C)(OC)[C@@H](O)[C@H](C)O2)[C@H](C)[C@@H](O[C@@H]2O[C@H](C)C[C@H](N(C)C)[C@H]2O)[C@](C)(O)C[C@@H](C)C(=O)[C@H](C)[C@@H](O)[C@]1(C)O` [ERYTHROMYCIN, erythromycin], where the note is “Staphylococcus coagulase f (non β-lactamase producer)”, the Range was 0.03–8. Under setting [1], the Range is on record as 0.06–16 and the MIC90 is given as 4.
